Experimental data reported in US10328092B2, “Methods and compositions for treatment of drug addiction” (The Royal Institution for the Advancement of Learning / …, priority 2015, dated 2019).

What was measured:
[1] = tested on: primary rat microglia cultures; assay: TNFα mRNA in primary rat microglia cultures; type: cell-based
TNFα mRNA = details: mouse, in vivo
Method: For tissue, total RNA from the ventral striatum was extracted and isolated by RNAqueous-4PCR total RNA isolation kit (Ambion, AM1914), according to manufacturer's instructions. For microglia and astrocyte cultures, total RNA was isolated by RNeasy kit (Qiagen, 74136). For all sample types, 0.5 μg of total RNA was used for cDNA synthesis with Quantitect Reverse Transcription Kit (Qiagen, 205313), and quantitative RT-PCR was performed with Fast SYBR-Green Master Mix (Applied Biosystems) detected by StepOne Plus RealTime PCR system (Applied Biosystems). The sequences of qPCR primers used for mRNA quantification in this study were obtained from Integrated DNA Technologies, and are as follows: mouse TNFα forward, […] (SEQ ID NO: 1) [200 nM]; mouse TNFα reverse, […] (SEQ ID NO: 2) [200 nM]; mouse GAPDH forward, […] (SEQ ID NO: 3) [300 nM]; mouse GAPDH reverse, […] (SEQ ID NO: 4) [300 nM]; rat TNFα forward, […] (SEQ ID NO: 1) [600 nM]; rat TNFα reverse, […] (SEQ ID NO: 5) [600 nM]; rat cyclophilin forward, […] (SEQ ID NO: 6) [500 nM]; rat cyclophilin reverse, […] (SEQ ID NO: 7) [500 nM]. After 40 cycles, the Ct values were determined. To normalize the samples, ΔCt between TNFα and GADPH or cyclophilin Ct values was calculated. The x-fold difference in expression between the different treatments was then determined by subtraction of the ΔCt values and termed ΔΔCt. Finally, the total change was calculated as 2-ΔΔct and the relative amount compared with control samples was deducted.

CCCN1CCC[C@@H]2Cc3n[nH]cc3C[C@H]21 [quinpirole]
change in TNFα mRNA in primary rat microglia cultures [1]: effective at increasing | TNFα mRNA in cortical microglia (TNFα mRNA): 82±37 % of control | TNFα mRNA in other striatal cell types (TNFα mRNA): 138±72 % of control | TNFα mRNA in striatal microglia cells (TNFα mRNA): increased
